Reference: US8163701B2, “Prodrugs of active agents” (Signature Therapeutics, Inc., priority 2005, dated 2012)

Target: T1, Type 1 bovine trypsin (Bos taurus, UniProt P00760)
T1 sequence (P00760 24-246): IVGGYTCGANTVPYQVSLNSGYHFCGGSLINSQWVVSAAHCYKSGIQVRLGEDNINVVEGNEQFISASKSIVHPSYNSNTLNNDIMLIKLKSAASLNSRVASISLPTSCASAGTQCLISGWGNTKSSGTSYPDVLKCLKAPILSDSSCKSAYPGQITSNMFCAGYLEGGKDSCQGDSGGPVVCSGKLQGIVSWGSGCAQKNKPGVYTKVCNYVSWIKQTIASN
Assay: Trypsin hydrolysis of opioid prodrug Z
Details: 30 minute incubation at room temperature with increasing amounts of trypsin, reverse phase HPLC; 12 mM CaCl2, 5 mM Tris-HCl pH 8.0

In the case of COc1ccc2c3c1OC1C(=O)CC[C@H]4[C@@H](C2)[N@@+](C)(Cc2ccc(NC(=O)[C@@H](N)CCCCN)cc2)CC[C@]314 (stereo partly shown) [opioid prodrug Z], the “hydrolysis of prodrug by trypsin (disappearance of prodrug / appearance of hydrocodone)” value is reported as “hydrolyzed to hydrocodone”.
